Experimental data reported in PMC4836378 (Journal of medicinal chemistry, 2016).

Sequences of proteins named here, by UniProt entry; tags and fusion partners are left off.
UniProt P10276, whole entry: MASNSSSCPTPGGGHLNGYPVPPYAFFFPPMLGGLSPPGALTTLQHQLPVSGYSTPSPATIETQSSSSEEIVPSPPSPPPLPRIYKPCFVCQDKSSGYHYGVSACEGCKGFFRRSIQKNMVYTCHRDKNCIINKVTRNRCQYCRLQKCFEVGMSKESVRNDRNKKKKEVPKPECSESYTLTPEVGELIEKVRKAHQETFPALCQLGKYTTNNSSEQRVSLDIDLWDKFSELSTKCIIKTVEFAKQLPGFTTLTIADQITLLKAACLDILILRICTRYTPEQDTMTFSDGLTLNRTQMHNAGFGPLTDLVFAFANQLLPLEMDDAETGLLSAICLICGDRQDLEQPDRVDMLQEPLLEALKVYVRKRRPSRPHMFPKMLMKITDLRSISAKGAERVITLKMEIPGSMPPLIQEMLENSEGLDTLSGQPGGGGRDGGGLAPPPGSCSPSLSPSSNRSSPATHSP
UniProt P13631, whole entry: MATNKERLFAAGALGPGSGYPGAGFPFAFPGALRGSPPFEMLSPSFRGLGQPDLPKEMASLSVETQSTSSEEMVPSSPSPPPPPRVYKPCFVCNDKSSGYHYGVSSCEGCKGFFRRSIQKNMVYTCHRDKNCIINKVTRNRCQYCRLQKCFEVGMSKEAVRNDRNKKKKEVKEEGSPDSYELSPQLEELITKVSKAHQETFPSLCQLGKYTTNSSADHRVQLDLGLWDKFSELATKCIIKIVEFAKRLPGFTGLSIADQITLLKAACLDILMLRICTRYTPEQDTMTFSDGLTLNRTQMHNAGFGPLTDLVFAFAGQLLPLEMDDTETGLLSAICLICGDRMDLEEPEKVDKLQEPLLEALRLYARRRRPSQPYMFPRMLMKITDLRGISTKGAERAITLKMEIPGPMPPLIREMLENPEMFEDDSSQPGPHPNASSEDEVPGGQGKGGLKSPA

Tests used:
human RARα = human RARα (Homo sapiens, UniProt P10276); assay: Luciferase-based RARα reporter assay; format: cell-based
human RARγ = human RARγ (Homo sapiens, UniProt P13631); assay: Luciferase-based RARγ reporter assay; format: cell-based

**Q.** What does the source list for `CC1(C)CCC(C)(C)c2cc(C3(c4ccc(CCC(=O)O)cc4)SCCS3)ccc21` [Compound 30, 3-{4-[2-(5,5,8,8-Tetramethyl-5,6,7,8-tetrahydronaphthalen-2-yl)-1,3-dithiolan-2-yl]phenyl}propanoic acid]?
**A.** RARα activation (human RARα): No measurable RARα and RARγ activation was detected; RARγ activation (human RARγ): No measurable RARα and RARγ activation was detected
